Results on 1 compound are retold here after ChEMBL document CHEMBL1123583 (J Med Chem, 1987).

Chains of the proteins cited; added tags and fusions are not shown.
UniProt P47747, whole entry: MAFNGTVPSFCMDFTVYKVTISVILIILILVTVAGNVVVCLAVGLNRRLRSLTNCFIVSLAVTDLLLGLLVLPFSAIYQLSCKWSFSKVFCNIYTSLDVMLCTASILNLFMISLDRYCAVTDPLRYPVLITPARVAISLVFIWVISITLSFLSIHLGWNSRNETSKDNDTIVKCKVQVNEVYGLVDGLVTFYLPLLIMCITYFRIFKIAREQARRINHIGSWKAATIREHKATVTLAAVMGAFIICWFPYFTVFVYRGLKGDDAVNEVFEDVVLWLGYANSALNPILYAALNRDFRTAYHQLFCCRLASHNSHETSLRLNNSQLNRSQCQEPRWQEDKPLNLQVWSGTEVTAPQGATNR

The structures appear in SMILES notation.

For test [1], the target named is T1, Histamine H2 receptor (Cavia porcellus, UniProt P47747). The test is described as follows: Antagonistic activity against Histamine H2 receptor expressed as the charge of receptor sensitivity was determined at pH 7.8. It counts as functional. The settings on record: read-out: pA2 (converted).
Test [2] addresses T1, Histamine H2 receptor. The test is described as follows: Antagonistic activity against Histamine H2 receptor expressed as the charge of receptor sensitivity was determined at pH 7.0. The test is classed as functional. The settings on record: read-out: pA2 (converted).

With `CN/C(=N/CCSCc1nc[nH]c1C)NC#N` [CIMETIDINE], the results for the Kb on Histamine H2 receptor [1] and on Histamine H2 receptor [2] were 372 nM and 955 nM, respectively.
